From ChEMBL document CHEMBL2321875, “The development of highly potent inhibitors for porcupine” (J Med Chem, 2013)

System: Plasma
Assay: Metabolic stability in human plasma at 2 uM after 24 hrs by LC-MS/MS analysis
Assay type: ADME, cell-free

## O=C(CSc1nc2c(c(=O)n1-c1ccccc1)SCC2)Nc1ccc(-c2ccccc2)cn1
  Stability: Stable
